# Values of other authors, collected in patent publication US9670133B2, “Mixtures of cannabinoid compounds, and production and use thereof” (priority 2013, dated 2017).
# Target: CB2 receptors
# Conditions: literature (Pertwee et al. 2010); read-out: Affinity for CB2; cited from earlier work
structure (smiles),measurement,value
"C=C(C)[C@@H]1CCC(C)=C[C@H]1c1c(O)cc(CCCCC)cc1O [CBD, 2-[1R-3-methyl-6-(1-methylethenyl)-2-cyclohexene-1-yl]-5-pentyl-1,3-benzenediol]",Ki,≥ 2400 nM
